Experimental data published in patent publication US20190160257A1, “METHODS AND SYSTEMS FOR INHIBITING VASCULAR INFLAMMATION” (Mercator MedSystems, Inc., priority 2002, published 2019).

Details: pig, in vivo

Oregon Green® 488 paclitaxel [OGP]
longitudinal extension from the injection site (mean): 15 mm | longitudinal extension from the injection site (range): 13-24 mm | staining after delivery into the lumen without needle deployment: staining on the luminal surface only | staining of the adventitia (scored 0-4+): 4+
